# Ab-14 heavy chain CDR variants: yeast mating affinities

Source: Li et al. 2023 (doi:10.1038/s41467-023-39022-2), MIT Lincoln Laboratory and A-Alpha Bio; data file from the FLAb repository.

Antigen: PDVDLGDISGINAS, a 14-residue peptide of the SARS-CoV-2 spike HR2 region.

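Phage display of a naive human antibody library on the peptide gave the parent. These sequences belong to a second round, designed from the earlier measurements on random variants of the parent. Their group label is 14H_En_HC (En: ensemble of fine-tuned language models; HC: hill climbing; a sequence that several methods proposed may carry one label only). Affinity was read by AlphaSeq, a pooled yeast mating assay with surface-displayed partners. After mating in shaken culture at 30 °C for 16 h, diploids were selected and their barcode pairs sequenced. The ratio of observed to expected reads was calibrated, replicate by replicate, on BCL2-family standards whose Kd was known from biolayer interferometry. There are six technical replicates.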

Parent: Ab-14, a human scFv built as VH, the linker GGGGSGGGGSGGGGS, VL. Only the CDRs of the heavy chain vary.
VH: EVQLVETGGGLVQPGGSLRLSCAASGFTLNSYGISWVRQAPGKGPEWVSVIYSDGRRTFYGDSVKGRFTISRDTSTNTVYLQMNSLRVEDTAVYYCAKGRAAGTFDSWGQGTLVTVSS
VL: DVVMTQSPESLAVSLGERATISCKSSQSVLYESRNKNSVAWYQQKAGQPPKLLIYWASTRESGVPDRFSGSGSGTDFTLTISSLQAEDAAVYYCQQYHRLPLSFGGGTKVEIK

The parent's heavy chain CDRs are GFTLNSYGIS, VIYSDGRRTFYGDSVK, GRAAGTFDS; each variant's own CDRs replace them letter for letter. Affinities are written as log10 Kd with Kd in nM; a lower number is a better binder. "nd" marks a missing value. The strain was present, yet no cells mated with the target were sequenced in that replicate, which points to weak or no binding.

CDR-H1,CDR-H2,CDR-H3,"replicates, log10 nM",signal with controls
GFDLNEYGIS,VIYADGIRTFYADSVK,GNIAGTFII,0.92 / 0.14 / nd / 0.39 / 0.49 / 0.58,0/18
GFSLDEYGIS,VIYADGRRTFYADSVK,GNIAGTFDS,-0.72 / -0.78 / -0.72 / -0.73 / -0.68 / -0.57,0/18
GFDLNEYGIS,VIYADGRRTFYTDSVK,GQLAGTFDF,-0.08 / -0.55 / -0.63 / -0.71 / -0.66 / -0.21,0/18
GFDLDEYGIS,VIYADGRRTYYADSVK,GENAGTFDM,-0.66 / -0.70 / -0.07 / -1.00 / -0.84 / -0.67,0/18
GFDLNEYGIS,VIYADGKRTAYIDSVK,GEAAGTFDK,-0.16 / -0.23 / -0.18 / -0.50 / -0.75 / -0.22,0/18
GFDLNEYGIS,VIYADGRRTFYSDSVK,GTVAGTFDE,-0.36 / -0.51 / -0.54 / -0.46 / -0.10 / -0.42,0/18
GFDLNEYGIS,VIYADGMRTFYSDSVK,GEIAGTFDV,-0.73 / 0.40 / -0.83 / -0.96 / -0.90 / -0.40,0/18
GFDLNEYGIS,VIYADGRRTYYIDSVK,GNEAGTFDS,-0.52 / -0.71 / -0.77 / -0.90 / -0.45 / -0.49,0/18
GFDLNEYGIS,VIYADGRRTAYSDSVK,GEAGGTFDD,-0.19 / 0.68 / 0.08 / -0.25 / 0.30 / 0.63,1/18 (1.54)
GFDLNEYGIS,VIYADGRRTFYTDSVK,GEIAGTFDV,-0.63 / -1.00 / -0.61 / -0.94 / -0.41 / -0.84,0/18
GFDIDEYGIS,VIYADGVRTFYADSVK,GTNAGTFDI,-1.48 / nd / nd / -0.32 / -1.53 / -0.53,0/18
GFDLNEYGIS,VIYADGRRTFYADSVK,GQIAGTFDQ,-0.22 / -0.50 / -0.73 / -0.63 / -0.89 / -0.42,0/18
GFNLNEYGIS,VIYADGRRTFYADSVK,GETAGTFDV,-0.34 / -1.04 / -0.97 / -0.83 / -0.82 / -0.73,0/18
GFDLNEYGIS,VIYADGRRTFYIDSVK,GETAGTFNV,-0.40 / -0.58 / -0.40 / -0.56 / -0.80 / -0.51,0/18
GFDLNEYGIS,VIYADGRRTAYTDSVK,GQLAGTFDV,-0.99 / -1.25 / -1.15 / -1.38 / -1.50 / -1.01,0/18
GFDLNEYGIS,VIYADGRRTAYTDSVK,GEAAGTFDQ,-0.47 / -0.70 / -0.57 / -0.49 / -0.40 / 0.28,0/18
GFDLNEYGIS,VIYADGRRTAYTDSVK,GHLAGTFDL,-0.41 / -0.69 / -0.83 / -0.69 / -0.50 / -0.36,2/18 (3.13)
GFNLNEYGIS,VIYADGKRTAYSDSVK,GEVAGTFDV,-0.47 / -0.95 / -0.31 / -0.25 / -0.61 / -0.56,0/18
GFDLNEYGIS,VIYADGRRTAYADSVK,GTAAGTFDQ,-0.58 / -0.68 / -0.51 / -0.98 / -0.52 / -0.56,0/18
GFNLDEYGIS,VIYADGRRTFYADSVK,GEEAGTFDT,0.91 / 0.06 / -0.03 / -0.05 / 0.23 / 0.62,0/18
GFDLNEYGIS,VIYADGQRTFYADSVK,GNAAGTFDS,-1.00 / -0.99 / 0.32 / -0.78 / -0.54 / -0.60,0/18
GFDLNEYGIS,VIYADGRRTFYVDSVK,GVNAGTFDF,0.45 / 0.26 / 0.58 / 0.17 / 0.21 / 0.63,0/18
GFDLNEYGIS,VIYADGRRTAYSDSVK,GTAGGTFDI,0.60 / -0.45 / nd / 0.77 / 0.61 / 0.25,1/18 (1.25)
GFDLNEYGIS,VIYADGRRTFYADSVK,GTIAGTFDQ,-0.76 / -1.29 / -1.21 / -1.34 / -1.64 / -1.25,0/18
GFDLDEYGIS,VIYADGRRTFYADSVK,GEAAGTFDI,0.41 / 0.10 / 0.75 / -0.04 / 0.14 / -0.28,0/18
GFDINEYGIS,VIYADGQRTFYADSVK,GQTAGTFDS,-0.97 / -0.63 / -0.64 / -0.98 / -0.80 / -0.67,2/18 (1.70)
GFDLNEYGIS,VIYADGIRTFYADSVK,GNAAGTFDT,-0.45 / 0.06 / -0.28 / -0.21 / -0.40 / -0.34,0/18
GFDINEYGIS,VIYADGRRTAYADSVK,GEAAGTFDL,-0.41 / -0.35 / -0.52 / -0.63 / -0.09 / -0.32,0/18
GFDLNEYGIS,VIYADGKRTFYTDSVK,GQLAGTFDS,-0.62 / -0.84 / -0.86 / -1.08 / -0.80 / -0.63,2/18 (2.87)
GFNLDEYGIS,VIYADGVRTFYADSVK,GQVAGTFDS,-0.42 / -0.20 / -0.47 / -0.47 / -0.60 / -0.26,1/18 (2.77)
GFDLNEYGIS,VIYADGRRTAYTDSVK,GEFAGTFDS,0.03 / -0.56 / -0.34 / -0.65 / -0.24 / -0.44,0/18
GFNLNEYGIS,VIYADGRRTAYSDSVK,GEAAGTFDS,-0.47 / -0.42 / -0.39 / -0.81 / -0.62 / -0.26,1/18 (1.66)
GFDLNEYGIS,VIYADGMRTFYIDSVK,GEQAGTFDL,-0.33 / -0.25 / -0.22 / -0.46 / -0.22 / 0.04,0/18
GFDLNEYGIS,VIYADGQRTFYVDSVK,GVNAGTFDV,nd / nd / nd / nd / nd / nd,0/18
GFDLNEYGIS,VIYADGKRTFYADSVK,GKNAGTILV,nd / nd / nd / nd / 1.70 / nd,0/18
GFDLNEYGIS,VIYADGRRTFYTDSVK,GGNAGTFIL,nd / nd / nd / nd / nd / nd,0/18
GFDLDEYGIS,VIYADGMRTFYTDSVK,GEIAGTFDA,0.03 / 0.26 / 0.03 / -0.04 / 0.15 / 0.43,0/18
GFDLNEYGIS,VIYADGRRTFYIDSVK,GSEAGTFNM,-0.27 / -0.68 / -0.36 / -0.94 / -1.01 / -0.67,1/18 (0.78)
GFDLEDYGIS,VIYADGRRTFYADSVK,GEIAGTFDI,0.03 / -0.32 / -0.49 / -0.33 / -0.40 / 1.35,0/18
GFDLNEYGIS,VIYADGRRTAYDDSVK,GQVAGTFDE,-0.56 / -0.76 / -0.97 / -0.75 / -1.00 / -0.57,0/18
GFNLNEYGIS,VIYADGMRTFYADSVK,GEIAGTFDV,-0.42 / -0.33 / -0.46 / -0.53 / -0.62 / -0.42,2/18 (2.49)

5 of these entries, quoted again:

CDR-H1,CDR-H2,CDR-H3,"replicates, log10 nM",signal with controls
GFDINEYGIS,VIYADGQRTFYADSVK,GQTAGTFDS,-0.97 / -0.63 / -0.64 / -0.98 / -0.80 / -0.67,2/18 (1.70)
GFNLNEYGIS,VIYADGMRTFYADSVK,GEIAGTFDV,-0.42 / -0.33 / -0.46 / -0.53 / -0.62 / -0.42,2/18 (2.49)
GFDLNEYGIS,VIYADGRRTAYTDSVK,GEFAGTFDS,0.03 / -0.56 / -0.34 / -0.65 / -0.24 / -0.44,0/18
GFDLNEYGIS,VIYADGRRTAYTDSVK,GHLAGTFDL,-0.41 / -0.69 / -0.83 / -0.69 / -0.50 / -0.36,2/18 (3.13)
GFDINEYGIS,VIYADGRRTAYADSVK,GEAAGTFDL,-0.41 / -0.35 / -0.52 / -0.63 / -0.09 / -0.32,0/18

Of ten entries with the parent sequence, four were seen in most replicates (averages 0.34 to 2.37), three in one and three in none, so single entries are noisy. The authors averaged sequences with at least three values out of six and counted those with two or fewer as poor binders. Values of this round are not directly comparable with the first-round values of the same sequences. Nonspecific signal, from three strains lacking the peptide, appeared in 1% of pairings of all heavy chain designs, centred on 2.08 (5% of these signals below 0.84); values are not corrected for it. Also given: how often the same scFv was detected with the empty control strains, with their mean in brackets.